{
  "source": "patent US12564641B2",
  "about": "“Eribulin antibody-drug conjugates and methods of use” (EISAI R&D MANAGEMENT CO., LTD., priority 2019, dated 2026)",
  "key": {"A431 cells": {"tested_on": "A431 cells", "test": "In vitro cytotoxicity analysis (Crystal Violet), A431", "description": "(§1) Plates were read at 570 nm. Data was analyzed using GraphPad Prism 6.\n(§2) All ADCs were purified and characterized using SEC-HPLC for aggregation analysis, HIC-HPLC for DAR analysis, and cell-based assay with A431-A3 (MSLN^hi), A431 (MSLN^lo), and OVCAR3 (MSLN^hi) cell lines."}, "OVCAR3 cells": {"tested_on": "OVCAR3 cells", "test": "In vitro cytotoxicity analysis (Crystal Violet), OVCAR3", "description": "as §1, §2"}, "[1]": {"tested_on": "A3 (A431 stably transfected with human mesothelin) cells", "test": "In vitro cytotoxicity analysis (Crystal Violet), A3", "format": "cell-based", "description": "as §1"}, "HEC-251 cells": {"tested_on": "HEC-251 cells", "test": "In vitro cytotoxicity analysis (Crystal Violet), HEC-251", "format": "cell-based, human", "description": "as §1"}, "H226 cells": {"tested_on": "H226 cells", "test": "In vitro cytotoxicity analysis (Crystal Violet), H226", "format": "cell-based, human", "description": "as §1"}},
  "note": "Like-named read-outs stand apart in the source and are kept apart here.",
  "data": [
    {"substance": "cryptophycin", "values": [
      {"measurement": "EC50", "setting": "A431 cells; read-out: Cell-Based Cytotoxicity Assay EC50 (nM) A431, Table 19, payloads", "result": 0.8, "unit": "nM"},
      {"measurement": "EC50", "setting": "A431 cells; read-out: Cell-Based Cytotoxicity Assay, EC50 (nM) A431, Table 18, 5 days", "result": 0.8, "unit": "nM"},
      {"measurement": "EC50", "setting": "OVCAR3 cells; read-out: Cell-Based Cytotoxicity Assay EC50 (nM) OVCAR3, Table 19, payloads", "result": 0.24, "unit": "nM"},
      {"measurement": "EC50", "setting": "OVCAR3 cells; read-out: Cell-Based Cytotoxicity Assay, EC50 (nM) OVCAR3, Table 18, 5 days", "result": 0.24, "unit": "nM"},
      {"measurement": "EC50", "setting": "[1]; Table 18, 5 days, read-out: Cell-Based Cytotoxicity Assay, EC50 (nM) A3", "result": 1.01, "unit": "nM"},
      {"measurement": "EC50", "setting": "[1]; Table 19, payloads, read-out: Cell-Based Cytotoxicity Assay EC50 (nM) A3", "result": 1.01, "unit": "nM"},
      {"measurement": "EC50", "setting": "HEC-251 cells; Table 18, 5 days, read-out: Cell-Based Cytotoxicity Assay, EC50 (nM) HEC-251", "result": 0.43, "unit": "nM"},
      {"measurement": "EC50", "setting": "HEC-251 cells; Table 19, payloads, read-out: Cell-Based Cytotoxicity Assay EC50 (nM) HEC-251", "result": 0.43, "unit": "nM"},
      {"measurement": "EC50", "setting": "H226 cells; Table 18, 5 days, read-out: Cell-Based Cytotoxicity Assay, EC50 (nM) H226", "result": 1.94, "unit": "nM"},
      {"measurement": "EC50", "setting": "H226 cells; Table 19, payloads, read-out: Cell-Based Cytotoxicity Assay EC50 (nM) H226", "result": 1.94, "unit": "nM"}
    ]}
  ]
}
